Assay: Antioxidant activity assessed as bleomycin-Fe2+-induced DNA degradation by measuring absorbance at 0.1 mg/ml after 1 hr
Format: functional

Q: Which deltaA does the source give for `CC(=O)Oc1ccccc1C(=O)NCCC[Se]C#N` here?
A: 95.6

Q: With `CC(C)Cc1ccc(C(C)C(=O)NCCC[Se]C#N)cc1` (stereo not drawn) as the molecule, how does the deltaA read?
A: 88.5

Q: For `C[C@H](C(=O)NCCC[Se]C(F)(F)F)c1cccc(C(=O)c2ccccc2)c1`, which deltaA is on record?
A: 82.3

Q: For `COc1ccc2cc([C@H](C)C(=O)NCCC[Se]C#N)ccc2c1`, which deltaA is on record?
A: 80.6

Q: Which deltaA does the source give for `CC1=C(CC(=O)NCCC[Se]C#N)c2cc(F)ccc2/C1=C\c1ccc([S+](C)[O-])cc1` (stereo not drawn) here?
A: 76.5

Q: Which deltaA does the source give for `CC(C)Cc1ccc(C(C)C(=O)NCCC[Se]C(F)(F)F)cc1` (stereo not drawn) here?
A: 92.7

Q: Which deltaA does the source give for `CCc1cccc2c3c([nH]c12)C(CC)(CC(=O)NCCC[Se]C(F)(F)F)OCC3` (stereo not drawn) here?
A: 111

Q: Which deltaA does the source give for `Cc1cccc(Nc2ccccc2C(=O)NCCC[Se]C#N)c1C` here?
A: 62.9

Q: Which deltaA does the source give for `CC(C(=O)NCCC[Se]C#N)c1ccc(-c2ccccc2)c(F)c1` (stereo not drawn) here?
A: 80.4

Q: Which deltaA does the source give for `CC1=C(CC(=O)NCCC[Se]C(F)(F)F)c2cc(F)ccc2/C1=C\c1ccc([S+](C)[O-])cc1` (stereo not drawn) here?
A: 99.3

Q: Which deltaA does the source give for `CCc1cccc2c3c([nH]c12)C(CC)(CC(=O)NCCC[Se]C#N)OCC3` (stereo not drawn) here?
A: 92.1

Q: For `C[C@H](C(=O)NCCC[Se]C#N)c1cccc(C(=O)c2ccccc2)c1`, which deltaA is on record?
A: 75.5

Q: For `Cc1cccc(Nc2ccccc2C(=O)NCCC[Se]C(F)(F)F)c1C`, which deltaA is on record?
A: 68.3

Q: For `COc1ccc2cc([C@H](C)C(=O)NCCC[Se]C(F)(F)F)ccc2c1`, which deltaA is on record?
A: 90.7

Q: With `CC(=O)Oc1ccccc1C(=O)NCCC[Se]C(F)(F)F` as the molecule, how does the deltaA read?
A: 130

Q: With `COc1ccc2c(c1)c(CC(=O)NCCC[Se]C(F)(F)F)c(C)n2C(=O)c1ccc(Cl)cc1` as the molecule, how does the deltaA read?
A: 97.6

Q: Which deltaA does the source give for `CC(C(=O)NCCC[Se]C(F)(F)F)c1ccc(-c2ccccc2)c(F)c1` (stereo not drawn) here?
A: 104

Q: For `COc1ccc2c(c1)c(CC(=O)NCCC[Se]C#N)c(C)n2C(=O)c1ccc(Cl)cc1`, which deltaA is on record?
A: 106
